Measurements as given in patent EP3683219A1, “COMPOUND INHIBITING BUTYRYLCHOLINESTERASE” (Julius-Maximilians-Universität Würzburg, priority 2019, dated 2020).
“And” between values parts separate entries of the source, which are not always exact repeats. Equal entries are not always repeated.

Protein sequences, listed by entry. Tags and fused reporters are not part of them. Residues count along the entry.
UniProt P06276, 29-602 limits assumed: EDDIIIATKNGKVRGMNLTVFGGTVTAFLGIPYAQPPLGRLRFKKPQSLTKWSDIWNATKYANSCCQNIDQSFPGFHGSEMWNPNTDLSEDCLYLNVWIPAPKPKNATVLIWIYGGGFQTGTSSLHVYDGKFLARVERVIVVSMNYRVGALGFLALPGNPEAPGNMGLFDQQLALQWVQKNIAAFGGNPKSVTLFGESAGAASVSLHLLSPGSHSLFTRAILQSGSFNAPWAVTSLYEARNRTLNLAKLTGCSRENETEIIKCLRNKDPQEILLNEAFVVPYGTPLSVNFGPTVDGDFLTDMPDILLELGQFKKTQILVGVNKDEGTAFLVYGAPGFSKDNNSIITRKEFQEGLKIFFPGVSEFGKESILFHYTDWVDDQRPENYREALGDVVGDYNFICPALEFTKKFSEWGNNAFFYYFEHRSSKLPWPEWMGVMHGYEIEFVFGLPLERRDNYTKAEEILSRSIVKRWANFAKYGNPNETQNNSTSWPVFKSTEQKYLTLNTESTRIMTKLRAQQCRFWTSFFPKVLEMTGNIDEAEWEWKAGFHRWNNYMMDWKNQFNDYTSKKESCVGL
UniProt P22303, 32-614 limits assumed: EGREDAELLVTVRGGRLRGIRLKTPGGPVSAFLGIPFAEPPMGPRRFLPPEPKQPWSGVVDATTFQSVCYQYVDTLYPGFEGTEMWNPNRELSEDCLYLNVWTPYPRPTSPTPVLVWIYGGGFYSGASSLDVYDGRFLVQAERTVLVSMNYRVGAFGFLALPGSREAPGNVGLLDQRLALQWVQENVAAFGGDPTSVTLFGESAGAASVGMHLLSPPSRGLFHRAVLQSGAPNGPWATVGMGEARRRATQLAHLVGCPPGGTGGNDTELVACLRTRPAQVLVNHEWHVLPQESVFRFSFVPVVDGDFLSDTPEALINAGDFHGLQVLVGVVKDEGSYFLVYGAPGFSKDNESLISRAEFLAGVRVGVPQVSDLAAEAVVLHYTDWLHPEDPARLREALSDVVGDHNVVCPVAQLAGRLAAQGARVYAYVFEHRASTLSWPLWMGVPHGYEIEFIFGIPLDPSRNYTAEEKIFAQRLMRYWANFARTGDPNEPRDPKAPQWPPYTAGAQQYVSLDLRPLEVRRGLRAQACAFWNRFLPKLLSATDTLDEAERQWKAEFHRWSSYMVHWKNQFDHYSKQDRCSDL

Experiments:
[1] = target: T1, hBChE (Homo sapiens, UniProt P06276); conditions: hAChE over hBChE
[2] = target: hAChE (Homo sapiens, UniProt P22303); conditions: cited from earlier work
[3] = target: T1, hBChE; conditions: cited from earlier work
[4] = target: T1, hBChE; conditions: cited from earlier work; remark: listed apart in the source
[5] = tested on: Aβ25-35-induced passive avoidance impairments; assay: Step-through passive avoidance test, Aβ25-35-injected mice; format: in vivo, male Swiss mice; conditions: 0.3-3 mg/kg ip o.d. day 1 to 7; retention day 10
[6] = tested on: Aβ25-35-induced spontaneous alternation deficits; assay: Spontaneous alternation test in the Y-maze, Aβ25-35-injected mice; format: in vivo, male Swiss mice; conditions: 0.3-3 mg/kg ip o.d. day 1 to 7; Y-maze day 8

| SMILES | Selectivity index (IC50 hAChE/IC50 hBChE) [1] | IC50 [2] | Kd [3] | IC50 [4] | effect on Aβ25-35-induced passive avoidance deficits (step-through latency, retention) [5] | effect on Aβ25-35-induced spontaneous alternation deficits [6] |
| --- | --- | --- | --- | --- | --- | --- |
| CN1c2ccc(OC(=O)NCCCCCCCF)cc2CN2CCc3ccccc3C21 (stereo not drawn) | 692 | 3600 nM and 3630 nM | 24.3 nM | 5.2 nM and 5.25 nM | – | – |
| CCCCCCCNC(=O)Oc1ccc2c(c1)CN1CCc3ccccc3C1N2C (stereo not drawn) | – | – | – | – | significantly prevented the Aβ25-35-induced passive avoidance deficits at all dose tested | attenuated the Aβ25-35-induced spontaneous alternation deficits at 1 and 3 mg/kg ip doses |
